Where “and” joins values, the source holds several entries; their conditions need not be identical. Equal values may be shown once.
What was measured:
Assay type in all cases: biochemical
[1] = biological target: T1, Dog sEH (Canis lupus familiaris, UniProt A0A8I3NJL8); assay: Secondary screen (kinetic mode), PHOME substrate; settings: [I] = 100 nM, secondary kinetic mode screening
[2] = biological target: T2, Cat sEH (Felis catus, UniProt A0ABI7ZL20); assay: Secondary screen (kinetic mode), PHOME substrate; settings: [I] = 100 nM, secondary kinetic mode screening
[3] = biological target: T3, Horse sEH (Equus caballus, UniProt F7C407); assay: Secondary screen (kinetic mode), PHOME substrate; settings: [I] = 100 nM, secondary kinetic mode screening
[4] = biological target: T1, Dog sEH; assay: Primary screen (end point) of the sEH inhibitor library, PHOME substrate; settings: [I] = 100 nM, primary end-point screening
[5] = biological target: T2, Cat sEH; assay: as above; settings: [I] = 100 nM, primary end-point screening
[6] = biological target: T3, Horse sEH; assay: as above; settings: [I] = 100 nM, primary end-point screening

Amino acid sequences for entries named in this document (tags omitted). Residues count along the entry.
UniProt A0A8I3NJL8, 1-556: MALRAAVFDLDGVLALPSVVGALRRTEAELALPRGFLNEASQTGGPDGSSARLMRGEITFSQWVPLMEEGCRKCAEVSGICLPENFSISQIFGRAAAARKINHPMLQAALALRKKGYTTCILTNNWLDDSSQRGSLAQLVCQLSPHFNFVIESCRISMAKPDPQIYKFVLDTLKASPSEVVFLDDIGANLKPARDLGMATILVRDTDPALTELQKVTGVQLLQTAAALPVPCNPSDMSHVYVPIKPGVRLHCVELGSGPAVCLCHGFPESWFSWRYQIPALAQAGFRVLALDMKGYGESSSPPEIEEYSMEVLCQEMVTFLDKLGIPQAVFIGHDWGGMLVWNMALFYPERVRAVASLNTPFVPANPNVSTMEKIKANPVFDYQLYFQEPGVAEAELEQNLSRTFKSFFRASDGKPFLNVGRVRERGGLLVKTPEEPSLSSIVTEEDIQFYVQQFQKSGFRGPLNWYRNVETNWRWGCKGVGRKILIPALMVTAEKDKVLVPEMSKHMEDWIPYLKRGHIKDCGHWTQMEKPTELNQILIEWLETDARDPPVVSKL
UniProt A0ABI7ZL20, 1-554: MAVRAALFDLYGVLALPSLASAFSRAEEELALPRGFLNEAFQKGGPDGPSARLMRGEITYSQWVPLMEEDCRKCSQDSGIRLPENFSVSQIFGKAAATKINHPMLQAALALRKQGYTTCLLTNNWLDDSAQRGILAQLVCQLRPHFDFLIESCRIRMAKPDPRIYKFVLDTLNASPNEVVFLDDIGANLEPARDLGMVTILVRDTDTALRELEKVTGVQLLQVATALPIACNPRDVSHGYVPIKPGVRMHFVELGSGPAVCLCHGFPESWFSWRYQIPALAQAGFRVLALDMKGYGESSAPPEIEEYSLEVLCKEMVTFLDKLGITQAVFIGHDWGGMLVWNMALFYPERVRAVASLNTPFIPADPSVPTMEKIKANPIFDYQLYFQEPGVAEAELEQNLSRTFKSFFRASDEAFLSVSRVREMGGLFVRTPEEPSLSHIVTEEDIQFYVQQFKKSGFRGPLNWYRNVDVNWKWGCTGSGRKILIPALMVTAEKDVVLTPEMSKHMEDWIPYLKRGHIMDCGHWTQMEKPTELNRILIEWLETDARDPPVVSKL
UniProt F7C407, 1-555: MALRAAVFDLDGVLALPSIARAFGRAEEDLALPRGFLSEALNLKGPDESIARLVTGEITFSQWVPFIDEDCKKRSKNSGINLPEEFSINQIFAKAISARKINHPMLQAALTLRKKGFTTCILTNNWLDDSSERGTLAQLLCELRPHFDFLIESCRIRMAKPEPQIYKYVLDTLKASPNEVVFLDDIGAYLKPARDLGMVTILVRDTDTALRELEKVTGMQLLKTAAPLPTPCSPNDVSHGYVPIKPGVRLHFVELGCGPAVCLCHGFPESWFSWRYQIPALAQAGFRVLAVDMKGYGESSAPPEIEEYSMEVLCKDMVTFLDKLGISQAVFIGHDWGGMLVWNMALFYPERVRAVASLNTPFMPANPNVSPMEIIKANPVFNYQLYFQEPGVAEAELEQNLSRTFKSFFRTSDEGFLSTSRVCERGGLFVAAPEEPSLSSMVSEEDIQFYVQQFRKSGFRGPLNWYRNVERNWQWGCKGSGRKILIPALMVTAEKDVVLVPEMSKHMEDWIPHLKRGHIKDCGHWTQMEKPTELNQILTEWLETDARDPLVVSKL

Compound	Dog sEH Inhibition (%) S. ([1]; 0.1 µM)	Cat sEH Inhibition (%) S. ([2]; 0.1 µM)	Horse sEH Inhibition (%) S. ([3]; 0.1 µM)	Dog sEH Inhibition (%) P. [4]	Cat sEH Inhibition (%) P. ([5]; 0.1 µM)	Horse sEH Inhibition (%) P. ([6]; 0.1 µM)	Dog sEH Inhibition (%) S. [1]	Cat sEH Inhibition (%) S. [2]	Horse sEH Inhibition (%) S. [3]	Cat sEH Inhibition (%) P. [5]	Horse sEH Inhibition (%) P. [6]
O=C(NCCC1CCCCC1)NC1CCCCC1	75% and 80%	99% and 94%	89% and 86%	< 90%	95% and 100%	103% and 102%					
CNC(=O)c1ccc(O[C@H]2CC[C@H](NC(=O)NC34CC5CC(CC(C5)C3)C4)CC2)cc1 (relative stereo)				92%			83%	102%	88%	< 90%	90%
CCOCCOCCOc1cccc(NC(=O)NC23CC4CC(CC(C4)C2)C3)c1				90%			87%	99%	92%	101%	110%
NS(=O)(=O)c1ccc(-n2nc(CCCNC(=O)NC3CCCCCC3)cc2-c2ccccc2)cc1				93%			89%	103%	95%	109%	98%
O=C(NCCCC(=O)OCc1ccccc1)NC12CC3CC(CC(C3)C1)C2				< 90%			96%	98%	89%	102%	99%
O=C(NC1CCC(Oc2cccc(C(=O)O)c2)CC1)NC12CC3CC(CC(C3)C1)C2 (stereo not drawn)				90%			91%	99%	91%	95%	99%
CCCCCOC(=O)CCCNC(=O)NC12CC3CC(CC(C3)C1)C2				< 90%			80%	100%	87%	98%	98%
O=C(Nc1ccc(OC(F)(F)F)cc1)N[C@H]1CC[C@@H](Oc2ccc(C(=O)O)cc2)CC1 (relative stereo)		96% and 110%			119% and 99%						
CCOC(=O)c1ccc(COC(=O)CCCNC(=O)NC23CC4CC(CC(C4)C2)C3)cc1				90%			95%	100%	91%	< 90%	< 90%
CCOC(=O)C(C(=O)OCC)=C1CCC(NC(=O)NC23CC4CC(CC(C4)C2)C3)CC1 (stereo not drawn)				88%			82%	94%	88%	103%	115%
CC(=O)N1CCN(CCCCOc2cccc(NC(=O)NC34CC5CC(CC(C5)C3)C4)c2)CC1				91%			81%	98%	95%	93%	100%
O=C(Nc1ccc(OC(F)(F)F)cc1)N[C@H]1CC[C@H](Oc2ccc(-c3nnn[nH]3)cc2)CC1 (relative stereo)				92%			84%	100%	92%	100%	105%
O=C(Nc1ccc(OC(F)(F)F)c(F)c1)N[C@H]1CC[C@H](Oc2ccc(C(=O)O)cc2)CC1 (relative stereo)				91%			82%	101%	96%	106%	102%
CS(=O)(=O)NCCCCCOCCCCCNC(=O)NC12CC3CC(CC(C3)C1)C2				< 90%			94%	91%	84%	93%	95%
O=C(CCCCCCCCCCCNC(=O)NC12CC3CC(CC(C3)C1)C2)NO				91%			80%	99%	90%	102%	< 90%
O=C(NC12CC3CC(CC(C3)C1)C2)N[C@H]1CC[C@@H](Nc2ccc(F)cc2)CC1 (relative stereo)				90%			80%	92%	88%	92%	93%

Compound	Dog sEH Inhibition (%) S. ([1]; 0.1 µM)	Cat sEH Inhibition (%) S. ([2]; 0.1 µM)	Horse sEH Inhibition (%) S. ([3]; 0.1 µM)	Dog sEH Inhibition (%) P. [4]	Cat sEH Inhibition (%) P. ([5]; 0.1 µM)	Horse sEH Inhibition (%) P. ([6]; 0.1 µM)	Dog sEH Inhibition (%) S. [1]	Cat sEH Inhibition (%) S. [2]	Horse sEH Inhibition (%) S. [3]	Cat sEH Inhibition (%) P. [5]	Horse sEH Inhibition (%) P. [6]
O=C(NC1CCCCC1)NC12CC3CC(CC(C3)C1)C2				< 90%			85%	108%	87%	< 90%	102%
O=C(NC1CCC(Oc2ccc(CO)cc2)CC1)NC12CC3CC(CC(C3)C1)C2 (stereo not drawn)				< 90%			80%	104%	90%	96%	91%
CCCCCCCCNC(=O)NC1CCN(C(=O)CC)CC1				94%			82%	90%	90%	< 90%	< 90%
O=C(O)CCCCCCCCCCCNC(=O)Nc1ccc(OC(F)(F)F)cc1				< 90%			86%	102%	85%	93%	< 90%
O=C(Nc1ccc(F)c(C(F)(F)F)c1)N[C@H]1CC[C@H](Oc2ccc(C(=O)O)cc2)CC1 (relative stereo)				91%			83%	103%	88%	99%	99%
O=C(Nc1ccc(Cl)c(C(F)(F)F)c1)N[C@H]1CC[C@H](Oc2ccc(C(=O)O)cc2)CC1 (relative stereo)				97%			84%	104%	93%	100%	106%
CCCCCOC1CCC(NC(=O)NC23CC4CC(CC(C4)C2)C3)CC1 (stereo not drawn)				< 90%			88%	94%	80%	< 90%	97%
Cc1ccc(S(=O)(=O)N2CCC(C(=O)NCC3CCCCC3)CC2)c(C)c1				109%			88%	101%	97%	98%	103%
O=C(NCCCc1ccccc1)NC12CC3CC(CC(C3)C1)C2	82% and 77%	99% and 103%	88% and 92%		92% and 102%						104%
CC(C)c1cccc(C(C)(C)NC(=O)NCC2CCN(C(=O)OC(C)(C)C)CC2)c1				< 90%			81%	90%	96%	102%	103%
Cc1ccc(S(=O)(=O)N2CCC(C(=O)NC3CCCCCCC3)CC2)c(C)c1				98%			95%	99%	89%	96%	100%
CC(C)(C)OC(=O)N1CCC(NC(=O)NC23CC4CC(CC(C4)C2)C3)CC1				93%			86%	99%	89%	93%	103%
O=C(NCCCCCOCCCCCOCC(F)(F)F)NC12CC3CC(CC(C3)C1)C2				90%			80%	100%	88%	97%	104%
NC(=O)CCCCCCCCCCCNC(=O)NC12CC3CC(CC(C3)C1)C2				99%			85%	98%	91%		105%
COC(=O)c1cccc(C(=O)N2CCC(NC(=O)NC34CC5CC(CC(C5)C3)C4)CC2)c1				< 90%			81%	103%	91%	101%	< 90%
